Data as given in patent US20180086789A1, “PHARMACEUTICAL COMPOUND” (VALLAURIX PTE. LTD., priority 2015, published 2018).

Tested on: tyrosinase
Test: Effects on tyrosinase activity in human melanocyte culture 1750 (3H-labeled tyrosine)
Assay type: cell-based
Details: 10^−9 M, six days of treatment, human melanocyte culture 1750 expressing functional MC1R
Description: The compound with formula structure Ac-Nle-Glu-His-D-Phe-homoArg-Trp-NH2 of the invention was tested using human melanocyte culture coded 1750 that expressed functional MC1R. The melanocytes were plated at a density of 0.3*10^6 cells onto 60 mm dishes (triplicate dishes/group). After 48 hours, the melanocytes were treated every other day for a total of six days with different doses (10^−12 M to 10^−7 M) of the compound. A control without compound was included in the test. Reference compound NDP-MSH, afamelanotide, was also included as comparison at the same concentrations. On treatment day 5, ^3H-labeled tyrosine, the substrate for tyrosinase, was added and 24 hours later, the supernatant was saved to be assayed for tyrosinase activity as described by Suzuki et al (see example 2). Duplicate samples from each were assayed, with triplicate dishes included in each group. Cell number in each dish was counted, and tyrosinase activity was expressed as dpm/10^6 cells and as % of the control. Statistical analysis was carried out using ANOVA followed by Newman Kuels test.
It will be understood that this tyrosinase activation test relates to a late event after MC1R activation, compared to the earlier secondary messenger effect of the above cAMP test. As pointed out above, activity of tyrosinase requires days of treatment.

CCCC[C@H](NC(=O)[C@H](CO)NC(=O)[C@H](Cc1ccc(O)cc1)NC(=O)[C@H](CO)NC(C)=O)C(=O)N[C@@H](CCC(=O)O)C(=O)N[C@@H](Cc1cnc[nH]1)C(=O)N[C@H](Cc1ccccc1)C(=O)N[C@@H](CCCNC(=N)N)C(=O)N[C@@H](Cc1c[nH]c2ccccc12)C(=O)NCC(=O)N[C@@H](CCCCN)C(=O)N1CCC[C@H]1C(=O)N[C@H](C(N)=O)C(C)C [NDP-MSH, reference compound]
tyrosinase activity, efficacy, % of the control: 156%
